# scFv variants of Ab-14 (light chain) against a SARS-CoV-2 spike peptide

Reference: Engelhart et al. 2022, doi:10.1038/s41597-022-01779-4. File: FLAb, binding data.

Target: peptide PDVDLGDISGINAS, taken from heptad repeat 2 (HR2) of SARS-CoV-2 spike.

Parent scFv Ab-14: VH joined to VL by three GGGGS repeats. Changes lie in the light chain CDRs alone.
VH: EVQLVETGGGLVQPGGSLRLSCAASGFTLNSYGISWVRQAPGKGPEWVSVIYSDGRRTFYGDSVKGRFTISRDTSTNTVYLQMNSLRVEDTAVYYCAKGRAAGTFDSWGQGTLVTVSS
VL: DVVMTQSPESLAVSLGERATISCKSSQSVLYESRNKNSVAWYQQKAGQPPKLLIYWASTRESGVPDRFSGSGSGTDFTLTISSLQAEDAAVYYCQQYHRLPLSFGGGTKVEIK

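Library AAYL50 holds single substitutions and randomly drawn double and triple substitutions in the CDRs. The scFvs were displayed on barcoded MATa yeast, the peptide on MATalpha yeast. After mating in shaken culture at 30 °C for 16 h, diploids were selected and their barcode pairs sequenced. Scores were corrected for input abundance and mapped to Kd with protein pairs of known affinity run in the same pool. Mating was done three times.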

Changes read parent residue, position, new residue, counted from the first residue of the VL shown. Values are log10 of the apparent Kd in nM; lower means stronger binding. The mean shown is taken over the replicates in which the pair was detected. Where no diploid with the target was found in that replicate, the entry reads "nd": below detection, most likely a poor binder, though not proof of it. In this assay the parent's reference entry averaged 0.65; its copy inside this library read 1.68. Three control strains display no target. For library AAYL50, 18% of the pairings with them gave a signal, with a median of 4.19 and one signal in twenty below 2.99, so weak values seen in few replicates may be background. Also given: how often the same scFv was detected with the empty control strains, with their mean in brackets.

changes,"replicates, log10 nM","log10 Kd (nM), mean",control signals
Y31W/S62K/P101Y,2.64 / 1.81 / 3.27,2.58,1/9 (4.06)
W56A/Q96T,0.02 / 0.33 / 0.23,0.19,2/9 (5.81)
V39L/A40M/L100F,nd / nd / nd,nd,5/9 (4.86)
S26A/N35E/A57Y,nd / nd / nd,nd,1/9 (2.37)
N37L/W56M/E61I,3.64 / 4.05 / 3.20,3.63,4/9 (4.51)
Y31F/V39A/Y97L,nd / nd / nd,nd,0/9
Q27Y/Y31G/A57K,1.33 / 1.51 / 1.76,1.53,1/9 (3.07)
S38H/W56V/R60K,nd / nd / nd,nd,0/9
S28D/W56A/S62R,4.24 / nd / nd,4.24,2/9 (3.80)
Q27C/S28M/S103W,4.69 / 4.56 / nd,4.62,1/9 (4.41)
S33D/S38Q/L100F,1.03 / 0.97 / 0.96,0.99,0/9
S26L/S58D/R99Q,0.81 / 1.05 / 1.17,1.01,1/9 (2.72)
N35I/W56S/L102K,1.01 / 1.02 / 0.88,0.97,0/9
Y31D/S33A/S62Y,1.46 / 1.45 / 1.39,1.43,1/9 (3.83)
K36L/S58I/T59P,nd / 3.82 / nd,3.82,3/9 (3.67)
E32I/S58V/E61N,4.78 / 2.62 / 4.42,3.94,2/9 (4.20)
S25C/V39M/A57I,nd / nd / nd,nd,0/9
K24D/S62V/P101R,nd / nd / 5.70,5.70,2/9 (4.31)
S28L/T59D/S62F,nd / 3.13 / 3.99,3.56,1/9 (4.00)
A40Q/S62A/Y97M,3.37 / 3.08 / 6.04,4.16,1/9 (5.53)
Y31N,0.19 / 0.48 / 0.32,0.33,0/9
S33K/R34M/T59N,0.72 / 0.88 / 0.87,0.82,2/9 (5.23)
A40S/S62N/H98D,nd / nd / nd,nd,2/9 (4.06)
Y31W/S38E,4.28 / 4.80 / nd,4.54,4/9 (4.33)
S33W/Q96V,nd / nd / nd,nd,0/9
Y31M/W56Y,0.78 / 0.97 / 1.00,0.92,6/9 (4.39)
Y31M/W56E/R60L,-0.17 / 0.15 / -0.08,-0.03,5/9 (5.41)
K36N,nd / nd / nd,nd,0/9
S26N/V29S/W56G,-0.42 / -0.04 / -0.26,-0.24,6/9 (5.32)
S26V/Y31P/A40V,nd / 4.22 / nd,4.22,0/9
K36T/A57P/P101N,nd / nd / nd,nd,2/9 (3.47)
K24H/T59M/R99L,1.12 / 0.96 / 1.26,1.12,2/9 (3.31)
R34Y/K36H/S38L,nd / nd / 4.42,4.42,3/9 (4.50)
A57F/R99P/L102P,nd / 4.88 / 5.51,5.20,1/9 (3.84)
K36L/S62R,0.47 / 0.66 / 0.43,0.52,7/9 (4.55)
V29I/E32F/A57N,nd / 3.59 / nd,3.59,0/9
E32R/A40S/Q95S,5.03 / 3.73 / nd,4.38,4/9 (4.36)
E32V/T59F/P101Q,2.47 / 2.63 / 3.08,2.73,3/9 (3.86)

Extract of 3 entries:

changes,"replicates, log10 nM","log10 Kd (nM), mean",control signals
N35I/W56S/L102K,1.01 / 1.02 / 0.88,0.97,0/9
S33D/S38Q/L100F,1.03 / 0.97 / 0.96,0.99,0/9
S28D/W56A/S62R,4.24 / nd / nd,4.24,2/9 (3.80)